Earlier results in patent US11576865B2, “Sustained-release dosage forms of ruxolitinib” (Incyte Corporation, priority 2012, dated 2023).

Test system: patients with intermediate-2 or high risk myelofibrosis
Settings: COMFORT-I, ruxolitinib vs placebo, week 24; 95% CI 6.9 to 33.7; cited from earlier work

N#CC[C@H](C1CCCC1)n1cc(-c2ncnc3[nH]ccc23)cn1 [Ruxolitinib, (3R)-3-cyclopentyl-3-[4-(7H-pyrrolo[2,3-d]pyrimidin-4-yl)pyrazol-1-yl]propanenitrile]
odds ratio for reduction of 50% or more in the total symptom score: 15.3
